The test deals with T1, human IsK protein (UniProt P15382+P70057).
T1 construct: channel formed with endogenous oocyte KCNQ1; two-microelectrode voltage clamp
Kind of test: cell-based.

Sequences of proteins named here, by UniProt entry; tags and fusion partners are left off. A change or cut given only in a name is not applied to a line headed by its entry.
UniProt P70057: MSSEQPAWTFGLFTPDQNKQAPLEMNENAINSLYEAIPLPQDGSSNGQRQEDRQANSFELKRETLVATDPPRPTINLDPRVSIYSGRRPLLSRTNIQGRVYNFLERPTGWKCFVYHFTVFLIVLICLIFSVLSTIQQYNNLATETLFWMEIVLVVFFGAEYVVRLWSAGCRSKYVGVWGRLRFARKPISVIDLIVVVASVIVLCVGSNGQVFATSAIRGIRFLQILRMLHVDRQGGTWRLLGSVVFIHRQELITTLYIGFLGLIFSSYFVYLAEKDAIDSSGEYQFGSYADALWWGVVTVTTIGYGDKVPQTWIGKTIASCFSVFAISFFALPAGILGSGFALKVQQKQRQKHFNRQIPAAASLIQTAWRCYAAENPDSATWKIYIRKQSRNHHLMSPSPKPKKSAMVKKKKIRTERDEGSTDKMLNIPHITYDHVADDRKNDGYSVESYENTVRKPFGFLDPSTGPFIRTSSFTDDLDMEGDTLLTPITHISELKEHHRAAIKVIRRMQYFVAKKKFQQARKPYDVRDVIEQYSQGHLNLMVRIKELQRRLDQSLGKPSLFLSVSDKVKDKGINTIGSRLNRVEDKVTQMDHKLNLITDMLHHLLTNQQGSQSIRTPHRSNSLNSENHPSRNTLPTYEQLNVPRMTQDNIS

This note sets out measurements from patent US5955607A, “Sulfonamide-substituted chromans, processes for their preparation, their use as a medicament or diagnostic, and pharmaceutical preparations comprising them” (priority 1997, dated 1999).

For `CCS(=O)(=O)N(CC(=O)NCCc1ccc(F)cc1)C1CC(C)(C)Oc2ccc(F)cc21` (stereo not shown) [Example 59, 2-[Ethanesulfonyl-(6-fluoro-2,2-dimethyl-chroman-4-yl)-amino]-N-[2-(4-fluoro-phenyl)-ethyl]-acetamide], the 50% inhibitory concentration (IC50) was below 100 nM.
